Assays:
hNaV1.6 = hNaV1.6 (Homo sapiens, UniProt Q9UQD0); test: FLIPR membrane potential assay, HEK 293 cells expressing hNaV1.6
hNaV1.1 = hNaV1.1 (Homo sapiens, UniProt P35498); test: FLIPR membrane potential assay, HEK 293 cells expressing hNaV1.1
hNaV1.2 = hNaV1.2 (Homo sapiens, UniProt Q99250); test: FLIPR membrane potential assay, HEK 293 cells expressing hNaV1.2
mouse and human NaV1.7 = conditions: cited from earlier work
hNaV1.7 = hNaV1.7 (Homo sapiens, UniProt Q15858); test: FLIPR membrane potential assay, HEK 293 cells expressing hNaV1.7; assay type: cell-based; conditions: HEK cells expressing Nav1.7; GpTx-1 100 μM, PF-04856264 10 μM, CNV1014802 100 μM; Figure S1
[1] = Solubility in phosphate-buffered saline; conditions: diluted in phosphate-buffered saline/10% DMSO
mice = test: Motor performance, Parallel Rod Floor Test; conditions: 30 mg/kg i.p.; control 1.49 ± 0.16 m

Sequences of proteins named here, by UniProt entry; tags and fusion partners are left off.
UniProt Q9UQD0, whole entry: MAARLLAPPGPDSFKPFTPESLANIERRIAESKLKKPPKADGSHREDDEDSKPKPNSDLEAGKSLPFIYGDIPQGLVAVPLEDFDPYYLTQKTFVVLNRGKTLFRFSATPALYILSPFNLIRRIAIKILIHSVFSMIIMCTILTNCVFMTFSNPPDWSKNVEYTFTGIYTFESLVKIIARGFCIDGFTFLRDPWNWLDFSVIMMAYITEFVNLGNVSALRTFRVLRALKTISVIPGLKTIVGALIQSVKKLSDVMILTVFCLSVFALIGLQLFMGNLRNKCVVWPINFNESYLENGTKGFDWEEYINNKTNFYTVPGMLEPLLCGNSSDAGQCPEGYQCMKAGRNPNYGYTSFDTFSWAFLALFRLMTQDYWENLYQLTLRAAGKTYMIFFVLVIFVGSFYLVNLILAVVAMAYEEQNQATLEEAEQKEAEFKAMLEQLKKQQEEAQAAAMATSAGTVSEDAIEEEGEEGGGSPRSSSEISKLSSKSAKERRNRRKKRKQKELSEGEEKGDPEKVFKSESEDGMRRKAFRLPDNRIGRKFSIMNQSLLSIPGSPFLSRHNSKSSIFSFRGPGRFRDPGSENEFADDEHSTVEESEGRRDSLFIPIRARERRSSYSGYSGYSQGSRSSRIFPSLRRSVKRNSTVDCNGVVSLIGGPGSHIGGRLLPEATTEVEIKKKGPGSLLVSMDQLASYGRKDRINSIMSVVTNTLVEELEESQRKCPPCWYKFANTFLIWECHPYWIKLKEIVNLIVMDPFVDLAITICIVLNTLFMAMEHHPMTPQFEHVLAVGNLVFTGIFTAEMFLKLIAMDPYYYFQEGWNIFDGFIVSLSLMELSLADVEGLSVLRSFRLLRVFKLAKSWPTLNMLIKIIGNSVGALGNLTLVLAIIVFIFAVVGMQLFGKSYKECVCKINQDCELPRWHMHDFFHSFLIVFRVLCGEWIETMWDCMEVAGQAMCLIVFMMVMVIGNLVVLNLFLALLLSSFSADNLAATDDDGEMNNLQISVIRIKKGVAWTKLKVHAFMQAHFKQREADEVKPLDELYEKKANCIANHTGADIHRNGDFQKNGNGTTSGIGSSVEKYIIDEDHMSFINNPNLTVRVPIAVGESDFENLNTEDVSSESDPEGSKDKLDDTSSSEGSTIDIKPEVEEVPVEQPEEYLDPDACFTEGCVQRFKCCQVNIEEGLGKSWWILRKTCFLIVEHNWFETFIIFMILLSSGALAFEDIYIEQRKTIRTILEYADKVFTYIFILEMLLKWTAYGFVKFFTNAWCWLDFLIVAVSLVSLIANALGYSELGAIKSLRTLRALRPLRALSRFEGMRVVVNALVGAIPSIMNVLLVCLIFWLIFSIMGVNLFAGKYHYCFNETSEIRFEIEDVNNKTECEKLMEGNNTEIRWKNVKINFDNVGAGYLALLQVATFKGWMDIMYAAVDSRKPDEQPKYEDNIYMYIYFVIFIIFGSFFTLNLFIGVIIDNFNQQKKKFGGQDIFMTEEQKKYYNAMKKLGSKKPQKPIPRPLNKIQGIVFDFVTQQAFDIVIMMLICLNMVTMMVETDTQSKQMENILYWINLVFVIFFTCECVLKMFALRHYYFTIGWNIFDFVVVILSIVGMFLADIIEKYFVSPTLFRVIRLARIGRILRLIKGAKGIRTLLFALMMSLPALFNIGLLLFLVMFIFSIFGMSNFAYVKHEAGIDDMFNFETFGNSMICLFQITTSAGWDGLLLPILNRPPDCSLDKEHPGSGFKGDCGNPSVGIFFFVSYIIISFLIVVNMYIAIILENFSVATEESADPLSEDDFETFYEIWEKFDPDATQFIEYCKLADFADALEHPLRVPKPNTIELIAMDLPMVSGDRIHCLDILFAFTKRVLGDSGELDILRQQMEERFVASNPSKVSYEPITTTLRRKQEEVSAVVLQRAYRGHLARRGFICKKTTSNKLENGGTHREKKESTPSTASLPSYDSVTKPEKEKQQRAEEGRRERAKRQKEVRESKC
UniProt Q99250, whole entry: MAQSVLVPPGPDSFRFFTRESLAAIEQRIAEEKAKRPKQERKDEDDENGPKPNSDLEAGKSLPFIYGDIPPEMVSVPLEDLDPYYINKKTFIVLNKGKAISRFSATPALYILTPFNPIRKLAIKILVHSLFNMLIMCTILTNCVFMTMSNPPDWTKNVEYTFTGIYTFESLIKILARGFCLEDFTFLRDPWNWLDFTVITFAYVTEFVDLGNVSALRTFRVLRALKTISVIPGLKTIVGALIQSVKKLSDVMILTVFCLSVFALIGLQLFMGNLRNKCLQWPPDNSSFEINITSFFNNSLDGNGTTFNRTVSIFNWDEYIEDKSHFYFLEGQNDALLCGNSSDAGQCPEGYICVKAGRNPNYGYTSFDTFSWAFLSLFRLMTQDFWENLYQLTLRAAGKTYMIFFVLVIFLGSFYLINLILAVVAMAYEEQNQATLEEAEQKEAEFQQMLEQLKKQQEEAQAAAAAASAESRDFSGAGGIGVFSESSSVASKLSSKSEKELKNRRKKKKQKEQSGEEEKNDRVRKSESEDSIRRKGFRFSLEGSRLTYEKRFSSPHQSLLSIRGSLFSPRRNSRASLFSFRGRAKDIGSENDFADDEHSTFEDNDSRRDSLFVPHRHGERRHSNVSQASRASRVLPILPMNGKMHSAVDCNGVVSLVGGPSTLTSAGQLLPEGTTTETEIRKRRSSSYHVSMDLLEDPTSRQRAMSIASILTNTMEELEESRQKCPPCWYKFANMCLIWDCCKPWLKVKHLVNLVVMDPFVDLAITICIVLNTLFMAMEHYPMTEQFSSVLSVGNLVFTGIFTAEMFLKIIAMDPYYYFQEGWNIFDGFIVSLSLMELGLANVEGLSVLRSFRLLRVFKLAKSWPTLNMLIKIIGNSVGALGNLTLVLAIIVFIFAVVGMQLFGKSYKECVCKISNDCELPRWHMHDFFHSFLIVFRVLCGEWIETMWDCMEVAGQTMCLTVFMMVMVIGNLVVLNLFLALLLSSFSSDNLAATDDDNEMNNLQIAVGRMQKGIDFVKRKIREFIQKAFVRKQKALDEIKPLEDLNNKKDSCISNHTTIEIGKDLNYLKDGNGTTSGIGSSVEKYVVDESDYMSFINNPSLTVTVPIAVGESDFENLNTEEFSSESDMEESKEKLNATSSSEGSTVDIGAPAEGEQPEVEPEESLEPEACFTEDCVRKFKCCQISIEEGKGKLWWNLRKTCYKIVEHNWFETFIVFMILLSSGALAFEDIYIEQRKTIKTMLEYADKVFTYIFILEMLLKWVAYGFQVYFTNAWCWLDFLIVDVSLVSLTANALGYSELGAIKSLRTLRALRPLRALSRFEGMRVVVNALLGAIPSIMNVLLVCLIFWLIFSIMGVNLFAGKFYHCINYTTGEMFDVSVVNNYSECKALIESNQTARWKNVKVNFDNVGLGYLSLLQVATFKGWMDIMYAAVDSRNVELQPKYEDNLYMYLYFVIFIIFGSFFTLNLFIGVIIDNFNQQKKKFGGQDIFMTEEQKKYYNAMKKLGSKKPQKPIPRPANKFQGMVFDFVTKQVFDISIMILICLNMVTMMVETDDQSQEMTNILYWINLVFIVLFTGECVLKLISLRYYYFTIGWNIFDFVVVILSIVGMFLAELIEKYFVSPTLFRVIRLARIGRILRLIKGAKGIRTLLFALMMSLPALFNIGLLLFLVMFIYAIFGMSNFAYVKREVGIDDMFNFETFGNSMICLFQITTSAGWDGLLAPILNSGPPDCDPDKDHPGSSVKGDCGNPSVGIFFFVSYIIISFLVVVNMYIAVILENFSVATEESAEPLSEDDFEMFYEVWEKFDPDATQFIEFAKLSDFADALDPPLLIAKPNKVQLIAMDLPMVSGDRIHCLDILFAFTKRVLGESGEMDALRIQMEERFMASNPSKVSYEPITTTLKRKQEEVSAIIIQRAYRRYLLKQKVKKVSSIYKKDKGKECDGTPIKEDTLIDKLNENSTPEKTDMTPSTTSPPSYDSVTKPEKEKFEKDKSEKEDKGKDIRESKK
UniProt Q15858, whole entry: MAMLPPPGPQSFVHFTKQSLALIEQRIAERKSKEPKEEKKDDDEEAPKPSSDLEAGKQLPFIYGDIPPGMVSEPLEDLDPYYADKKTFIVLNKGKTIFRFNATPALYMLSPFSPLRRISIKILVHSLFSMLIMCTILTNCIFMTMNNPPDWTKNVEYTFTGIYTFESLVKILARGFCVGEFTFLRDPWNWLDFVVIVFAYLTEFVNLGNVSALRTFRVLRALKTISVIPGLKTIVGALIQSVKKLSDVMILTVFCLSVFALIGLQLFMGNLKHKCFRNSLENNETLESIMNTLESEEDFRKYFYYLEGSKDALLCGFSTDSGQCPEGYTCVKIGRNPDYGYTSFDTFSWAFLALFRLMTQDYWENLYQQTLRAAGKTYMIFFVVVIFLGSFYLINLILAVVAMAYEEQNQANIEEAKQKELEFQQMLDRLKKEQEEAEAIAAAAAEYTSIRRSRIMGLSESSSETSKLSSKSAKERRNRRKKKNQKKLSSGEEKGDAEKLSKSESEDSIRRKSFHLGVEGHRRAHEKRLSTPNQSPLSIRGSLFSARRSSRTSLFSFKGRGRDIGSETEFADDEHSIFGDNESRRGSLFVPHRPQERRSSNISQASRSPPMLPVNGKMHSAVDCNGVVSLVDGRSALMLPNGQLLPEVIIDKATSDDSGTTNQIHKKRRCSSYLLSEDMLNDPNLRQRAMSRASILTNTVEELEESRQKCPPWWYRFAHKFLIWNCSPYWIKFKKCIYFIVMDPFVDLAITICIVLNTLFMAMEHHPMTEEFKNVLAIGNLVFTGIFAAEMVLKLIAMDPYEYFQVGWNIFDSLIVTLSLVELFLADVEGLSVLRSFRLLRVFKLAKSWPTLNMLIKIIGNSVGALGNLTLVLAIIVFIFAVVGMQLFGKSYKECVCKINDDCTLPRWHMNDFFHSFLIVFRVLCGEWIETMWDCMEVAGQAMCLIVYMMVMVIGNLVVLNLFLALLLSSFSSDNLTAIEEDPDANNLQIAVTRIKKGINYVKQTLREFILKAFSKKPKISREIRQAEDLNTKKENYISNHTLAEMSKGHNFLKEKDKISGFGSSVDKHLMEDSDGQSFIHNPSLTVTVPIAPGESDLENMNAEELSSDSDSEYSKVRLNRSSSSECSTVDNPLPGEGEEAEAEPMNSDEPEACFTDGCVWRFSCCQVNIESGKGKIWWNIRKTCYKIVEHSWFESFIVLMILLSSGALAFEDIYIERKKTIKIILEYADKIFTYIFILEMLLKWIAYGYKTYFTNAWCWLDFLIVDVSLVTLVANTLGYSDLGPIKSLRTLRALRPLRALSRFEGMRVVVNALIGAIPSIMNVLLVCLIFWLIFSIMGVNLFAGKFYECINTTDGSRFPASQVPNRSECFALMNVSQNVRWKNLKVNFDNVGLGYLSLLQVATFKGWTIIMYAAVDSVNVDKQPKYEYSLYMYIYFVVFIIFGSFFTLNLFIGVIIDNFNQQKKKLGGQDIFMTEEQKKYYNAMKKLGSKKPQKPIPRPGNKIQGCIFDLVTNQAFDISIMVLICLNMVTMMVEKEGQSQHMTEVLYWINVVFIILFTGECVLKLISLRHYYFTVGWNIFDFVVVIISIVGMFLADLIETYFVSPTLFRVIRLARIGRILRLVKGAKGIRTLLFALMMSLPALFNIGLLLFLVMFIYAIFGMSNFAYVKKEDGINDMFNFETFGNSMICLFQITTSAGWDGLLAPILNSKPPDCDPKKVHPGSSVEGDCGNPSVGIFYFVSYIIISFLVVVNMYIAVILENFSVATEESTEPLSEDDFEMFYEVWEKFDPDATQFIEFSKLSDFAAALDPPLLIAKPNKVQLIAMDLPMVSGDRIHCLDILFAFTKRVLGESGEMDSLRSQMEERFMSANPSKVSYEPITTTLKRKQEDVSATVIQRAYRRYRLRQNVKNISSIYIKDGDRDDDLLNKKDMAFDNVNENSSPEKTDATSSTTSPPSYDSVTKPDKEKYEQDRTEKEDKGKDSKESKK

With Cn1nccc1-c1ccccc1Oc1ccc(S(=O)(=O)Nc2nccs2)cc1C#N the IC50 (hNaV1.6; read-out: IC50 at hNaV1.6, veratridine 60 μM) was 309 µM, the “pIC50 ± SEM at hNaV1.6” value (hNaV1.6; three independent experiments) was 3.53 ± 0.1 and the IC50 (hNaV1.1; read-out: IC50 at hNaV1.1, veratridine 60 μM) was 247 µM. For the same compound, the “pIC50 ± SEM at hNaV1.1” value (hNaV1.1; three independent experiments) was 3.61 ± 0.1, the IC50 (hNaV1.2; read-out: IC50 at hNaV1.2, veratridine 60 μM) was 20 µM and the “pIC50 ± SEM at hNaV1.2” value (hNaV1.2; three independent experiments) was 4.87 ± 0.3. For the same compound, the “potency at mouse versus human NaV1.7” value (mouse and human NaV1.7) was “equipotent”, the “effect on veratridine-induced response (sample trace)” value (hNaV1.7) was “inhibited” and the solubility [1] was “poor solubility”. It also gave a distance travelled (mice) of 1.03 ± 0.17 m.

— publication PMC4810223 (Toxins, 2016)
